The record followed here is patent publication US20240002441.

For data set [1], the target named is Synthetic amyloid-beta peptide (Aβ42), P05067.
The target of data set [2] is Synthetic amyloid-beta peptide 1-40, P05067.
For a further data set, the target named is T1, SEQ ID NO: 2 (H2N-…-NH2).
T1 chain: SLFELGKMIX

B1: Recombinant human neprilysin (protein)
chain: YDDGICKSSDCIKSAARLIQNMDATTEPCTDFFKYACGGWLKRNVIPETSSRYGNFDILRDELEVVLKDVLQEPKTEDIVAVQKAKALYRSCINESAIDSRGGEPLLKLLPDIYGWPVATENWEQKYGASWTAEKAIAQLNSKYGKKVLINLFVGTDDKNSVNHVIHIDQPRLGLPSRDYYECTGIYKEACTAYVDFMISVARLIRQEERLPIDENQLALEMNKVMELEKEIANATAKPEDRNDPMLLYNKMTLAQIQNNFSLEINGKPFSWLNFTNEIMSTVNISITNEEDVVVYAPEYLTKLKPILTKYSARDLQNLMSWRFIMDLVSSLSRTYKESRNAFRKALYGTTSETATWRRCANYVNGNMENAVGRLYVEAAFAGESKHVVEDLIAQIREVFIQTLDDLTWMDAETKKRAEEKALAIKERIGYPDDIVSNDNKLNNEYLELNYKEDEYFENIIQNLKFSQSKQLKKLREKVDKDEWISGAAVVNAFYSSGRNQIVFPAGILQPPFFSAQQSNSLNYGGIGMVIGHEITHGFDDNGRNFNKDGDLVDWWTQQSASNFKEQSQCMVYQYGNFSWDLAGGQHLNGINTLGENIADNGGLGQAYRAYQNYIKKNGEEKLLPGLDLNHKQLFFLNFAQVWCGTYRPEYAVNSIKTDVHSPGNFRIIGTLQNSAEFSEAFHCRKNSYMNPEKKCRVW
B1: in data set [1], the “formation of Aβ1-12, Aβ1-16 and Aβ1-21 from Aβ42 by NEP over 24 h (LCMS)” value is “Levels of all three cleavage products increased over 24 h under each treatment”. This protein registered an amount of Aβ40 remaining after 4 h of cleavage by NEP alone (LCMS peak area) (arbitrary units (peak area)) in data set [2] of 3.2e+06. Moreover, in the data set with SEQ ID NO: 2 (H2N-…-NH2), the “KM of rhNEP in the presence of SEQ ID NO:2 (QFS cleavage)” value amounted to 8.7 ± 0.8 µM and the “vmax of rhNEP in the presence of SEQ ID NO:2 (QFS cleavage)” value is recorded as 0.035±0.002 µmol substrate cleaved/min.
